# Measured affinities in a library of Ab-95 light chain variants

Target: peptide PDVDLGDISGINAS, taken from heptad repeat 2 (HR2) of SARS-CoV-2 spike.

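The library (AAYL52) carries one to three amino acid substitutions per variant, with no insertions or deletions. AlphaSeq pools MATa yeast showing the antibodies with MATalpha yeast showing the peptide. The frequency of each diploid, read from paired DNA barcodes, reflects how well the two displayed proteins bind. A regression on co-assayed BCL2-family reference pairs converts the normalised counts of each replicate to an apparent Kd. There are three technical replicates.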

Each scFv is VH, the linker GGGGSGGGGSGGGGS, VL, as in the parent Ab-95, and differs from it in the CDRs of the light chain only.
VH: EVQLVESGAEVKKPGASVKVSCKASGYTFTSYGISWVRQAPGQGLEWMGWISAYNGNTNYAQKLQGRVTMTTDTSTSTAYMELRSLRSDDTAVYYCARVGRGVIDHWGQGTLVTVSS
VL: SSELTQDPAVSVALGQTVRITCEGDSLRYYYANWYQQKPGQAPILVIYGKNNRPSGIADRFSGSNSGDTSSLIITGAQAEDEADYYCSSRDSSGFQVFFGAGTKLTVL

Variants are written as CDR1, CDR2 and CDR3 of the light chain (limits as in the source). Parent: EGDSLRYYYAN, GKNNRPS, SSRDSSGFQVF.
Kd is apparent (estimated from mating counts) and averaged on the log scale over replicates with a signal. Smaller is tighter.
Where no diploid with the target was found in any replicate, the entry reads "nd": below detection, most likely a poor binder, though not proof of it.
Order: sorted from the lowest average up, undetected variants last.
Parent in this assay: reference entry 200 nM, copy in this library 180 nM.
Background: pairings of library AAYL52 with three empty control strains gave a value in 28% of cases (median 8.2 µM, 5th percentile 800 nM). Values in that range, when seen in few replicates, are hard to tell from nonspecific mating. For each scFv, signals with the empty controls are counted beside the result.

| # | CDR-L1 | CDR-L2 | CDR-L3 | Kd | detected | control signals |
|---|---|---|---|---|---|---|
| 1 | EGDWLRYQYAN | GKNNRPS | SSRDSSFFQVF | 15 nM | 3/3 | 5/9 |
| 2 | EGDSLRYGCAN | GKNNRPS | SSRDSSGFMVF | 19 nM | 3/3 | 2/9 |
| 3 | EGDSLRNYYPN | GKNNRPS | SSRDSSGFQVY | 27 nM | 3/3 | 3/9 |
| 4 | EGDSLRYYEAN | GKNNRPC | SSRDSSQFQVF | 130 nM | 3/3 | 3/9 |
| 5 | EGDSLRAYDAN | GKNNRPS | SSRDSSGIQVF | 170 nM | 3/3 | 2/9 |
| 6 | EGDSLRYYYAN | GKNNRPS | SRRFSSGFQVF | 200 nM | 3/3 | 3/9 |
| 7 | DGDSLRYYYAN | GKNNTPS | SSRDSSGFQVF | 210 nM | 3/3 | 2/9 |
| 8 | EFDSLMYYYAN | GKNNRPS | SLRDSSGFQVF | 270 nM | 3/3 | 6/9 |
| 9 | EGDSLRYYYAN | GKNNRPS | SSRDSSKFQAF | 300 nM | 3/3 | 2/9 |
| 10 | EGDSLRRYYAN | GKNNRPS | TSRDSSGFQFF | 380 nM | 3/3 | 3/9 |
| 11 | EGDSLRYYYKN | GKNGRSS | SSRDSSGFQVF | 400 nM | 3/3 | 5/9 |
| 12 | EFDSLRYYYTN | GKNNRPS | SSRDSSGFQVF | 480 nM | 3/3 | 6/9 |
| 13 | EGTSLRYYYAN | GKNNQPS | SSRDSSGFQVF | 480 nM | 3/3 | 2/9 |
| 14 | EGDSWRYYYAN | GKNNRPS | SSRGSSGRQVF | 520 nM | 3/3 | 4/9 |
| 15 | EGDSLRYYYAN | DKNHRPS | SHRDSSGFQVF | 760 nM | 1/3 | 0/9 |
| 16 | EGKSLRYYYAN | GKNNRPM | SSRDWSGFQVF | 830 nM | 3/3 | 2/9 |
| 17 | EGDSLRYPYAN | GKQNRPS | NSRDSSGFQVF | 1.0 µM | 3/3 | 0/9 |
| 18 | EGDSLRWYYAN | GKNNRPS | SSADVSGFQVF | 1.1 µM | 1/3 | 1/9 |
| 19 | EGDSLRYYYSN | GKNNRPF | SSRDSSGYQVF | 1.2 µM | 3/3 | 2/9 |
| 20 | EHDSLRYYYAN | GLNNRPS | SSRDSSGFQVF | 1.3 µM | 3/3 | 5/9 |
| 21 | EGDSLRYYYAN | GSNNRPS | SSWDSSGTQVF | 1.3 µM | 3/3 | 3/9 |
| 22 | EGDSLRYYYAN | GKANRPY | SSSDSSGFQVF | 1.7 µM | 3/3 | 2/9 |
| 23 | EGDSLRYYYAN | GKNNRPS | SSRGSSGDQNF | 2.0 µM | 3/3 | 4/9 |
| 24 | EGDSLRYQYGN | GKNNRPS | SSRDSSQFQVF | 2.0 µM | 2/3 | 3/9 |
| 25 | TGVSLRYYYAN | GKANRPS | SSRDSSGFQVF | 2.1 µM | 3/3 | 0/9 |
| 26 | EPDSLRYYYAN | GKNNRPS | SSRDKSGFQVN | 2.3 µM | 2/3 | 2/9 |
| 27 | EGDSLRYTYLW | GKNNRPS | SSRDSSGFQVF | 2.6 µM | 1/3 | 3/9 |
| 28 | EGDSLRRYFAN | GKTNRPS | SSRDSSGFQVF | 3.0 µM | 2/3 | 1/9 |
| 29 | EGDSIRYYMAN | GKNNRPS | SSRESSGFQVF | 3.2 µM | 3/3 | 4/9 |
| 30 | EGDSLRYYYAN | GKDNRPS | SSRDSSGFNWF | 3.5 µM | 2/3 | 3/9 |
| 31 | EGDSLRYYEAN | FKNNAPS | SSRDSSGFQVF | 3.6 µM | 2/3 | 3/9 |
| 32 | EGDNPRYYYAN | GKNNLPS | SSRDSSGFQVF | 4.0 µM | 2/3 | 2/9 |
| 33 | EGDLLRYEYAN | GKNNRPS | SSKDSSGFQVF | 4.2 µM | 3/3 | 3/9 |
| 34 | EGVSLRLYYAN | GKNNRPS | ESRDSSGFQVF | 4.7 µM | 2/3 | 2/9 |
| 35 | EGDSLRYYYAN | GKNNRPS | SRRLSSGFQVS | 6.0 µM | 1/3 | 3/9 |
| 36 | AGDSLRYYYAN | GKHNDPS | SSRDSSGFQVF | 8.3 µM | 3/3 | 6/9 |
| 37 | EGDSLRYYYIN | TKNNRPS | LSRDSSGFQVF | 11 µM | 1/3 | 1/9 |
| 38 | EGDSLRPIYAN | GKNNRQS | SSRDSSGFQVF | 11 µM | 1/3 | 3/9 |
| 39 | EGDSWRYQYAD | GKNNRPS | SSRDSSGFQVF | 11 µM | 1/3 | 4/9 |
| 40 | EGDSLRYYYAN | GKFDRPS | SVRDSSGFQVF | 13 µM | 3/3 | 0/9 |
| 41 | EGDSLRYYYAA | GKNNRPS | GSRDSSGFCVF | 13 µM | 2/3 | 1/9 |
| 42 | EGDSLRYYYAN | GKNKRPY | SKRDSSGFQVF | 16 µM | 1/3 | 5/9 |
| 43 | ENDSLRYYYAN | GKNNRPS | SSRDGSEFQVF | 22 µM | 2/3 | 5/9 |
| 44 | EGDSLRYYKAN | GKNNRPS | ISRVSSGFQVF | 55 µM | 1/3 | 1/9 |
| 45 | EGDSLRYYYAH | GKANRPS | SSRDSSGVQVF | 66 µM | 2/3 | 3/9 |
| 46 | ERDILRYYYAN | AKNNRPS | SSRDSSGFQVF | 75 µM | 2/3 | 2/9 |
| 47 | EGDSCRWYYAN | GKNNRPS | PSRDSSGFQVF | 100 µM | 1/3 | 3/9 |
| 48 | WGDMLRYYYAN | GKNNRPS | SSRDSSGGQVF | 260 µM | 1/3 | 1/9 |
| 49 | EGDSLRYYYHY | GKNHRPS | SSRDSSGFQVF | 290 µM | 1/3 | 2/9 |
| 50 | ECDSLRYCYAN | GKNNRPS | SSTDSSGFQVF | 290 µM | 1/3 | 0/9 |
| 51 | EFDSLRYYYAN | GKNNRWS | SSRDSSHFQVF | 390 µM | 1/3 | 3/9 |
| 52 | ETDSLRYYYAN | GKNNANS | SSRDSSGFQVF | nd | 0/3 | 3/9 |
| 53 | EVDSLRYYYNN | GKNNRPS | SSQDSSGFQVF | nd | 0/3 | 1/9 |
| 54 | EGDSLWYSYYN | GKNNRPS | SSRDSSGFQVF | nd | 0/3 | 1/9 |
| 55 | EGDSLRYYYAN | HKNNRDS | SSRDFSGFQVF | nd | 0/3 | 3/9 |
| 56 | EIDSLRYYYAN | GKNNRPS | SSCDSSGFFVF | nd | 0/3 | 4/9 |
| 57 | EGDELRYYYAN | GKNNRPS | LSRDSSGFQYF | nd | 0/3 | 2/9 |
| 58 | EGDSLLYYYAN | LKNNRPS | TSRDSSGFQVF | nd | 0/3 | 0/9 |
| 59 | EGGSLRYYYAN | GFNNRKS | SSRDSSGFQVF | nd | 0/3 | 0/9 |
| 60 | EGDSLRYYYAN | GKNNRPS | SSQDESGFTVF | nd | 0/3 | 0/9 |

Excerpt, the final 3 entries:

| CDR-L1 | CDR-L2 | CDR-L3 | Kd | detected | control signals |
|---|---|---|---|---|---|
| EGDSLLYYYAN | LKNNRPS | TSRDSSGFQVF | nd | 0/3 | 0/9 |
| EGGSLRYYYAN | GFNNRKS | SSRDSSGFQVF | nd | 0/3 | 0/9 |
| EGDSLRYYYAN | GKNNRPS | SSQDESGFTVF | nd | 0/3 | 0/9 |

The measurements come from Engelhart et al. 2022 (doi:10.1038/s41597-022-01779-4) through the FLAb antibody collection.